Laboratory results taken from patent US20260272868A1 (priority 2022, published 2026).

Experiments:
[1] = tested on: hallucinogenic effects of a 5-HT2A receptor agonist; assay: Extrapolated human MEC, MED and onset for reversal of hallucinogenic effects of a 5-HT2A receptor agonist; settings: for minimum efficacious dose (MED): human
[2] = tested on: head twitch response (HTR); format: in vivo, mice; settings: higher doses of trazodone
Protocol: Male C57BL/6 mice (~7-9 weeks old) were used in these studies. Mice were housed 2 per cage under standard temperature- and humidity-controlled laboratory conditions with a 12-hour light/dark cycle. Mice had free access to food and water.
Both compounds were dissolved in saline vehicle at a dose volume of 10 mL/kg. Doses were corrected for salt form so that the dose administered represented free base.
Mice were randomly assigned to 1 of 6 treatment groups consisting of 2 subcutaneous injections (see Table 1), which were administered according to the schedule in FIG. 1. […] Behavior was videotaped by a camera (GoPro Hero 9) mounted above the testing chambers. Recorded video was uploaded for analysis of head twitch behavior. Number of head twitch responses (HTRs) was recorded for each animal for each 2-min bin. For each treatment group, the mean number of HTRs in each 2- or 10-min bin, and across the whole 30-min recording period, were analyzed.

In the case of `O=c1n(CCCN2CCN(c3cccc(Cl)c3)CC2)nc2ccccn12` [trazodone], the “time to peak reversal effect” value ([1]; intranasal and intramuscular routes, contemplated) is reported as 15 to 20 min, the “time of peak reversal effect” value ([1]; intravenous bolus) is reported as < 5 min and the “minimum efficacious dose (MED)” value ([1]; intravenous route, estimated) is reported as < 12 mg. For the same compound, the “minimum efficacious dose (MED)” value ([1]; oral route, estimated) was -12 mg, the “time of peak reversal effect” value ([1]; oral trazodone, estimated, corresponding to Tmax) was 60 to 120 min and the “HTR relative to baseline of vehicle pre-treated animals” value [2] was “suppressed HTR below the baseline level”.
